Results from ChEMBL document CHEMBL5150055, “B-cell Lymphoma 6 Inhibitors: Current Advances and Prospects of Drug Development for Diffuse Large B-cell Lymphomas” (J Med Chem, 2022).

Tests used:
Format in all cases: cell-based
[1] = target: T1, B-cell lymphoma 6 protein (Homo sapiens, UniProt P41182); experiment: Induction of BCL6 degradation in human SU-DHL-4 cells at 5 uM incubated for 90 mins by electrophoresis analysis
[2] = target: T1, B-cell lymphoma 6 protein; experiment: Induction of BCL6 degradation in human SU-DHL-4 cells at 5 uM incubated for 2 hrs by electrophoresis analysis
[3] = target: T1, B-cell lymphoma 6 protein; experiment: Induction of BCL6 degradation in human SU-DHL-4 cells at 5 uM incubated for 5 mins by electrophoresis analysis

Activity [1]: 80%
Activity [2]: 90%
Activity [3]: 50%
SMILES: CNC(=O)COc1cc2cc(Nc3nc(N4C[C@H](C)C[C@H](C)C4)ncc3Cl)ccc2n(C)c1=O
